Assays:
TGF-β1 [1] = biological target: TGF-β1
TGF-β1 [2] = biological target: TGF-β1; remark: listed apart in the source

Amino acid sequences for entries named in this document (tags omitted). Residues count along the entry.
UniProt P37173, 23-166, stated change not applied: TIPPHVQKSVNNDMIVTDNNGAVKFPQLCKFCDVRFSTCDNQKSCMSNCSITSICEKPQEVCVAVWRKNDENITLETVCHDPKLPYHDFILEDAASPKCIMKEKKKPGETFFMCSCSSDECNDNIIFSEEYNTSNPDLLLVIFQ

Row | Substance | IC50 (nM) of neutralization of TGF-β1 (10 pM), A549 IL-11 release assay (TGF-β1 [1]) [nM] | IC50 (nM) of neutralization of TGF-β1 (10 pM), A549 IL-11 release assay (experiment of Figure 4B) (TGF-β1 [2]) [nM]
1 | T2m-hIgG2Fc(CCCC)ΔK (from UniProt P37173 23-166) (Fc fusion) | 2.5 | 
2 | hIgG1Fc(CC)ΔK-T2m (from UniProt P37173 23-166) (Fc fusion) | 0.0229 | 0.0029

— article PMC12597760
